The target in this experiment is human phosphodiesterase-3A (Homo sapiens, UniProt Q14432). As to the kind of experiment: PDE3 Assay. The following applies: read-out: PDE3 IC50; human recombinant enzyme expressed in Sf9 cells; formation of 5′AMP from cAMP. The method, then:
Evaluation of the effects of compounds on the activity of the human phosphodiesterase-3A is quantified by measuring the formation of 5′AMP from cAMP using a human recombinant enzyme expressed in Sf9 cells.
The test compound, reference compound or water (control) are added to a buffer containing 40 mM Tris/HCl (pH 7.4) and 8 mM MgCl2, 450 nM cAMP and 0.25 μCi [^3H]cAMP.
Thereafter, the reaction is initiated by addition of the enzyme (about 1 U) and the mixture is incubated for 20 min at 22° C.
For basal control measurements, the enzyme is omitted from the reaction mixture.
Following incubation SPA beads are added. After 30 min at 22° C. under shaking, the amount of [^3H]5′AMP is quantified with a scintillation counter (Topcount, Packard).
The results are expressed as a percent inhibition of the control enzyme activity. The standard inhibitory reference compound is milrinone (CAS number 78415-72-2), which is tested in each experiment at several concentrations to obtain an inhibition curve from which its IC50 value is calculated.

The chains behind the UniProt entries cited, without tags or fusion partners.
UniProt Q14432, whole entry: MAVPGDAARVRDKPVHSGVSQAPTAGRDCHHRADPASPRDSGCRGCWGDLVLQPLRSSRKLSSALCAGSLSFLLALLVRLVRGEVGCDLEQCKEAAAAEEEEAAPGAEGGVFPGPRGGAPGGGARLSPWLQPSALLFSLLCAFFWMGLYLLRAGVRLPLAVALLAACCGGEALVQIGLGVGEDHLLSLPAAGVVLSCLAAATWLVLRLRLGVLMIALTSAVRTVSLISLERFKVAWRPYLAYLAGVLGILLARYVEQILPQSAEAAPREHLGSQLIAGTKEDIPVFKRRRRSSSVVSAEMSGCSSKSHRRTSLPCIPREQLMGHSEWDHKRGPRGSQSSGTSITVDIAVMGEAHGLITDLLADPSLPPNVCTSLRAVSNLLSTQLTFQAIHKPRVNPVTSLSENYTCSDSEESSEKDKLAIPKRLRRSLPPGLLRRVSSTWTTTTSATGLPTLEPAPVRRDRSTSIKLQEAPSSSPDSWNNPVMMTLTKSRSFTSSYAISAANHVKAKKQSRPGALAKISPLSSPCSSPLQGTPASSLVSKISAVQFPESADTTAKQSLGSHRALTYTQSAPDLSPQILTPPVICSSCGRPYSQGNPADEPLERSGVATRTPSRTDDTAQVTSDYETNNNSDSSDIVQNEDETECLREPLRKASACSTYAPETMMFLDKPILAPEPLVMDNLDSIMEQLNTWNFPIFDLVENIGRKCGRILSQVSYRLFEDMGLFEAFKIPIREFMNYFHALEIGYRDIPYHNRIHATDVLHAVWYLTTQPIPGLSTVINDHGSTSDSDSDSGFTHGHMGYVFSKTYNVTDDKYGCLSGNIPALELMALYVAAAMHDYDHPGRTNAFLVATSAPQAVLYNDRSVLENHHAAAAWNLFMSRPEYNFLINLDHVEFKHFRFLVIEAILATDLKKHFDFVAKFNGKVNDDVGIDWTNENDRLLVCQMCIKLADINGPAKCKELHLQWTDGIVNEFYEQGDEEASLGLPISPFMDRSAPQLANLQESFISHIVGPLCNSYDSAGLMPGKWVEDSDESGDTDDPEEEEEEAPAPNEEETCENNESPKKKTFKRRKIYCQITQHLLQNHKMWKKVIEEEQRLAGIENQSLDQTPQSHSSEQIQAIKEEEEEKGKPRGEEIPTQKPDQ

The source of these data is patent publication US20250236627A1, “CERTAIN OCTAHYDROFURO[3,4- B]PYRAZINES AS GLP-1 RECEPTOR MODULATORS” (ASTRAZENECA AB, priority 2021, published 2025).

Broadly, the IC50 is the point on the concentration scale where inhibition reaches its midpoint.

On to `Cc1cc(Cc2nc3ccc(C(=O)O)cc3n2C[C@@H]2CCO2)c(F)cc1-c1cccc(OCc2ccc(C#N)cc2F)n1`, for which the IC50 came out at 5 µM.
